“Also recorded” adds a separate entry of the source.
System: tumor-derived cells from CRC or melanoma tumors
Assay: Expansion of tumor-derived cells at low or high IL-2 concentration
Assay type: cell-based, human
Conditions: 300 IU/mL (low) vs 6000 IU/mL (high) recombinant IL-2; CRC SCS and melanoma fragment cultures; 14-31 days
Procedure: Single cell suspensions (SCSs) were obtained by homogenization and enzyme digestion of primary tumors from donor patients with CRC or melanoma. As described in Example 1, cells were cultured in a conventional 6-well plate or a gas-permeable 24-well culture plate. Where possible, multiple conditions from each donor were initiated and averaged (error bars represent±standard deviation). For 6-well plates, cells were seeded between 250,000 and 1,000,000 cells/mL and for gas-permeable 24-well plates cells were seeded between 5,000 and 750,000 cells/mL. In both cases, the cells were seeded in either RPMI containing 5% human serum or serum free OpTmizer medium with recombinant IL-2 supplemented at a concentration of IL-2 of 300 IU/mL or 6000 IU/mL. The media also contained gentamicin at 10 μg/ml and a final concentration of 2.0 mM of a L-alanyl-L-glutamine dipeptide form of glutamine (GlutaMAX Supplement; Thermofisher). The cells were incubated for up to 31 days, typically 14 to 21 days, wherein 50% of cellular media was exchanged every other day beginning on the 5th day of culture. […]
For all conditions, cell counts were performed approximately every other day using the NC-200 Automated Cell Counter (Chemometec) and samples were collected for fluorescence-activated cell sorting (FACS). […]

Substance: IL-2: recombinant cytokine that supports T cell recovery and proliferation
- cellular expansion (total cell numbers and fold expansion): did not result in an appreciably distinct expansion response when compared with a lower dose; also recorded: not observed to be necessary for cellular expansion
